From ChEMBL document CHEMBL2169806, “Design, synthesis, and pharmacological evaluation of N-acylhydrazones and novel conformationally constrained compounds as selective and potent orally active phosphodiesterase-4 inhibitors” (J Med Chem, 2012)

What was measured:
[1] = species on record: Bos taurus; test: Selectivity ratio of IC50 for bovine PDE3 to IC50 for bovine PDE4
[2] = Selectivity ratio of IC50 for PDE6 to IC50 for bovine PDE4
[3] = species on record: Bos taurus; test: Selectivity ratio of IC50 for bovine PDE5 to IC50 for bovine PDE4

Compound | Ratio IC50 [1] | other results
COc1ccc(/C=N/N(C)C(=O)c2ccccc2OC)cc1OC | 26 | –
COc1ccc(/C=N/N(C)C(=O)c2ccc3c(c2)OCO3)cc1OC | > 90 | –
COc1ccc(/C=N/N(C)C(=O)c2ccc(OC)c(OC)c2)cc1OC | – | Ratio IC50 [2]: 59
COc1ccc(/C=N/N(C)C(=O)c2ccc(Cl)cc2)cc1OC | 45 | –
COc1ccc(/C=N/N(C)C(=O)c2ccc(O)cc2)cc1OC | – | Ratio IC50 [2]: 182
COc1ccc(/C=N/N(C)C(=O)c2ccccc2)cc1OC | 140 | –
COc1cccc(C(=O)N(C)/N=C/c2ccc(OC)c(OC)c2)c1 | 16 | –
COc1ccc(C(=O)N(C)/N=C/c2ccc(OC)c(OC)c2)cc1 | – | Ratio IC50 [3]: 1.5
